Measurements as given in PubChem BioAssay AID588590 (National Center for Advancing Translational Sciences (NCATS), 2011).
Only a part is listed here, and it is no random draw. Results filed as inconclusive are left out. Calls of active or inactive are those of the source. Calls come from the whole dose curve; as a rule, active = well fitted inhibition curve with a large enough effect; inconclusive = small, poorly fitted or top-dose-only effect, or another doubt; inactive = no such curve, though single readings can be large or run the other way.

Sequences of proteins named here, by UniProt entry; tags and fusion partners are left off. A change or cut given only in a name is not applied to a line headed by its entry.
UniProt Q9UNA4: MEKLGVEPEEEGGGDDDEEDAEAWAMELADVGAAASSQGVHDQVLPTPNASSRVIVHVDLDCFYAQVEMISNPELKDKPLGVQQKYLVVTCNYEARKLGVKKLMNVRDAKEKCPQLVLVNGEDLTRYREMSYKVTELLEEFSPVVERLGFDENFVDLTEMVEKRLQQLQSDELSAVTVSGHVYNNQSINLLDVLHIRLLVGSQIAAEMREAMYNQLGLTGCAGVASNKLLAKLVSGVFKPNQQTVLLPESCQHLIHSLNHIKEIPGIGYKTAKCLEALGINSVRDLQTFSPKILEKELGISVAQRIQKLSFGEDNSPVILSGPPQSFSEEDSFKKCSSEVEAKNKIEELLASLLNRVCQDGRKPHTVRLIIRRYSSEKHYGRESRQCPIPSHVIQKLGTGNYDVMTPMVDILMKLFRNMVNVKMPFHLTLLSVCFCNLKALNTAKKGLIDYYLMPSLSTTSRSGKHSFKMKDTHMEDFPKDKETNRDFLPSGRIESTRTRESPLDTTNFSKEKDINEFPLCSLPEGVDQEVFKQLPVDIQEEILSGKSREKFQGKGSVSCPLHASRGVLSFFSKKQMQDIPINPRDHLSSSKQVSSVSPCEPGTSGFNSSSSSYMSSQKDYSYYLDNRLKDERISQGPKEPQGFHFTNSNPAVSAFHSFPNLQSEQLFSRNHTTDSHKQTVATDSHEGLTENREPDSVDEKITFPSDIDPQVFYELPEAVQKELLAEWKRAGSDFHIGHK

target: DNA polymerase iota (Homo sapiens) (UniProt Q9UNA4); experiment: qHTS for Inhibitors of Polymerase Iota; details: Pol iota fluorescent replication assay, 10 min; series mostly up to 115 µM; activity, negative = inhibition: at the top concentration
Potency is the fitted concentration of half-maximal effect.

Question: With Cc1cnc(C(=O)NCCc2ccc(S(=O)(=O)NC(=O)NC3CCCCC3)cc2)cn1 as the compound, how does the “activity, negative = inhibition” value read?
Answer: Its value is inactive: 11.6%.

Question: How did the Potency turn out when CC1(C)N([O-])c2cc([N+](=O)[O-])ccc2[N+]1=O was run?
Answer: Its Potency is active: 7.94 µM.

Question: Which Potency does the source give for N=C(N)c1ccc(OCCCCCOc2ccc(C(=N)N)cc2)cc1 (tested in a mixture with another compound) here?
Answer: The Potency was active: 6.31 µM.

Question: With N=C(N)c1ccc(OCCCCCOc2ccc(C(=N)N)cc2)cc1 as the compound, how does the Potency read?
Answer: The Potency was active: 17.8 µM.

Question: CC(C)(C(=O)O)c1ccc(C(O)CCCN2CCC(C(O)(c3ccccc3)c3ccccc3)CC2)cc1 (stereo not given) was tested. Which Potency did it give?
Answer: Its Potency is “inactive”.
